The conditions of this data set: inhaled; phase 1 study. The method, then: A phase I, double blind, randomised, placebo controlled study was conducted examining the safety, tolerability and pharmacokinetics of single 600 μg, 900 μg and 1200 μg doses in 16 healthy male volunteers. No evaluation for efficacy was conducted during the clinical study.

Results on one compound are retold here after patent publication US20060178394A1, “Pharmaceutical compositions comprising apomorphine for pulmonary inhalation” (priority 2003, published 2006).

Where a name gives a salt, the structure may show the parent alone.

Consider `CN1CCc2cccc3c2[C@H]1Cc1ccc(O)c(O)c1-3` [Apomorphine HCl, apomorphine hydrochloride], for which the Maximum tolerated dose entry is reported as “around 900 μg”.
